This is an account of results in ChEMBL document CHEMBL3108692, “Potent Targeting of the STAT3 Protein in Brain Cancer Stem Cells: A Promising Route for Treating Glioblastoma” (ACS Med Chem Lett, 2013).

This test is filed under the species Homo sapiens. As to the kind of experiment: Selectivity ratio of Ki for STAT3 SH2 domain (unknown origin) to Ki for STAT1 (unknown origin).

As to `CN(CC(=O)N(Cc1ccc(C2CCCCC2)cc1)c1ccc(C(=O)O)c(F)c1)S(=O)(=O)c1c(F)c(F)c(F)c(F)c1F`, the Ratio Ki was found to be 2.
